Literature values, collected in US20110311455A1, “EN[…] GUIDED IMAGING AND THERAPIES” (THE REGENTS OF THE UNIVERSITY OF CALIFORNIA, priority 2008, published 2011).

Conditions: freely dissolved ICG; rapid initial phase of bi-exponential clearance; cited from earlier work

**Q.** Which plasma clearance half-life does the source give for `CC1(C)C(/C=C/C=C/C=C/C=C2\N(CCCCS(=O)(=O)O)c3ccc4ccccc4c3C2(C)C)=[N+](CCCCS(=O)(=O)[O-])c2ccc3ccccc3c21` [ICG, indocyanine green] here?
**A.** 3 to 4 min
